Assay results as given in patent US8460868B2, “Genetic markers for schizophrenia and bipolar disorder” (priority 2007, dated 2013).

Assays:
[1] = system: patients with schizophrenia; experiment: CATIE trial side effects (discontinued for safety concerns, COMPEFF score 5) by HPCAL1/SV2C genotype; type: in vivo, human; details: for OR vs. Low / OR vs. baseline: side effects; for OR vs. Low: vs low scoring genotype(s); for OR vs. baseline: vs sample not segmented by genotype
Experimental: The Clinical Antipsychotic Trials of Intervention Effectiveness (CATIE), a large federally funded clinical trial designed to assess the efficacy of antipsychotics in a real world setting, is a valuable resource for determining the role of genes in drug response (Stroup et al., Schizophr. Bull. 29:15-31 (2003); Lieberman et al., N. Engl. J. […] As part of the CATIE trial SNP genotyping was performed for roughly half of the trial participants (Sullivan et al., Mol. Psychiatry 13:570-584 (2008)). […] The design of the CATIE study has been described in detail by others (Stroup et al., Schizophr. Bull. 29:15-31 (2003); Lieberman et al., N. Engl. J. […] A total of 738 subjects consented to provide DNA for genetic study. […] Genotype and phenotype data for the CATIE trial were made available to qualified researchers through The NIMH Center for Collaborative Genetic Studies on Mental Disorders. For reduction to practice, we evaluated data for 417 patients with schizophrenia self reported as having exclusively European ancestry. […] Golden Helix, Bozeman, Mont.). To generate a P value, HelixTree calculates analysis of deviance (a likelihood ratio statistic) that compares the observed contingency table vs. an expected contingency table created with all the possible variations of the genetic model. […] The standard FDA registration trial definition of response of >20% decrease in Positive and Negative Syndrome Scale (PANSS Total Score) was used to assign subjects to a response category. […] Bull. 29:73-80 (2003)). […] The tables report odds ratios relative to the baseline values (sample not segmented by genotype) and relative to values for the low scoring, mutually exclusive genotype(s).

[2] = system: patients with schizophrenia; experiment: CATIE trial drug response (>20% decrease in PANSS Total Score) by HPCAL1/SV2C genotype; type: in vivo, human; details: HPCAL1 rs11679891 genotype C/C (C), vs low scoring genotype(s)
Experimental: The Clinical Antipsychotic Trials of Intervention Effectiveness (CATIE), a large federally funded clinical trial designed to assess the efficacy of antipsychotics in a real world setting, is a valuable resource for determining the role of genes in drug response (Stroup et al., Schizophr. Bull. 29:15-31 (2003); Lieberman et al., N. Engl. J. […] As part of the CATIE trial SNP genotyping was performed for roughly half of the trial participants (Sullivan et al., Mol. Psychiatry 13:570-584 (2008)). When combined with clinical drug response data, the genotyping data make possible a reduction to practice for the current invention as it relates to pharmacogenomic applications. The design of the CATIE study has been described in detail by others (Stroup et al., Schizophr. Bull. 29:15-31 (2003); Lieberman et al., N. Engl. J. […] A total of 738 subjects consented to provide DNA for genetic study. Details regarding SNP genotyping and quality control have been recently published (Sullivan et al., Mol. Psychiatry 13:570-584 (2008)). Genotype and phenotype data for the CATIE trial were made available to qualified researchers through The NIMH Center for Collaborative Genetic Studies on Mental Disorders. For reduction to practice, we evaluated data for 417 patients with schizophrenia self reported as having exclusively European ancestry. […]

[3] = SV2C rs1895391 genotype C/C (C)
[4] = SV2C rs6874435 genotype A/G, G/G (G)
[5] = SV2C rs10064352 genotype C/C (C)
[6] = SV2C rs10474464 genotype T/T (T)
[7] = SV2C rs12152728 genotype G/G (G)
[8] = SV2C rs1895391 genotype C/T, T/T (T)
[9] = SV2C rs10064352 genotype T/T (T)
[10] = SV2C rs10474464 genotype C/C (C)
[11] = SV2C rs12655684 genotype T/T (T)
[12] = SV2C rs12657276 genotype G/G (G)
[13] = SV2C rs17651115 genotype G/G (G)

## Cc1nc2n(c(=O)c1CCN1CCC(c3noc4cc(F)ccc34)CC1)CCCC2 [risperidone]
[1]; [3]
  Frequency Study ending side effects: 0.23
  OR vs. Low: 3.97
  OR vs. baseline: 2.19
[1]; [4]
  Frequency Study ending side effects: 0.24
  OR vs. Low: 4.20
  OR vs. baseline: 2.32
[1]; [5]
  Frequency Study ending side effects: 0.21
  OR vs. Low: 3.53
  OR vs. baseline: 1.95
[1]; [6]
  Frequency Study ending side effects: 0.21
  OR vs. Low: 3.53
  OR vs. baseline: 1.95
[1]; [7]
  Frequency Study ending side effects: 0.21
  OR vs. Low: 3.53
  OR vs. baseline: 1.95

## OCCOCCN1CCN(C2=Nc3ccccc3Sc3ccccc32)CC1 [quetiapine]
[2]
  OR vs. Low: 3.86

## Cc1cc2c(s1)Nc1ccccc1N=C2N1CCN(C)CC1 [olanzapine]
[1]; [8]
  OR vs. Low: 4.33
  OR vs. baseline: 1.29
[1]; SV2C rs4610441 genotype C/C (C)
  OR vs. Low: 4.26
[1]; [9]
  Frequency Study ending side effects: 0.46
  OR vs. Low: 3.20
  OR vs. baseline: 2.56
[1]; [10]
  Frequency Study ending side effects: 0.54
  OR vs. Low: 4.70
  OR vs. baseline: 3.52
[1]; SV2C rs12152728 genotype C/C (C)
  OR vs. Low: 3.76
[1]; [11]
  Frequency Study ending side effects: 0.75
  OR vs. Low: 10.04
[1]; [12]
  Frequency Study ending side effects: 0.48
  OR vs. Low: 5.67
  OR vs. baseline: 2.77
[1]; [13]
  Frequency Study ending side effects: 0.43
  OR vs. Low: 4.63
  OR vs. baseline: 2.26
